Data taken from article PMC9394474.

Target: human hisTRIM7- (human) (UniProt Q9C029)
Assay: ITC

CVB3 2BC C-terminal peptide showed a Kd of 11.2 µM.
